Experimental data reported in patent US20090012179A1, “Use of Tyrphostins to Stimulate Neurite Outgrowth” (priority 2004, published 2009).

Test system: ERK
Experiment: ERK activation in NS20Y neuroblastoma cells, immunoblotting for dually phosphorylated ERK
Type: cell-based, mouse

CCCN1CCC[C@@H]2Cc3n[nH]cc3C[C@H]21 [quinpirole]
ERK activation: stimulated a short-lived ERK activation
